The values that follow are results of earlier work, collected in PMC8954214, “Preparation, Identification, Molecular Docking Study and Protective Function on HUVECs of Novel ACE Inhibitory Peptides from Protein Hydrolysate of Skipjack Tuna Muscle” (Marine Drugs, 2022).

Protein sequences, listed by entry. Tags and fused reporters are not part of them. Residues count along the entry.
UniProt P12822, 34-1310 limits assumed: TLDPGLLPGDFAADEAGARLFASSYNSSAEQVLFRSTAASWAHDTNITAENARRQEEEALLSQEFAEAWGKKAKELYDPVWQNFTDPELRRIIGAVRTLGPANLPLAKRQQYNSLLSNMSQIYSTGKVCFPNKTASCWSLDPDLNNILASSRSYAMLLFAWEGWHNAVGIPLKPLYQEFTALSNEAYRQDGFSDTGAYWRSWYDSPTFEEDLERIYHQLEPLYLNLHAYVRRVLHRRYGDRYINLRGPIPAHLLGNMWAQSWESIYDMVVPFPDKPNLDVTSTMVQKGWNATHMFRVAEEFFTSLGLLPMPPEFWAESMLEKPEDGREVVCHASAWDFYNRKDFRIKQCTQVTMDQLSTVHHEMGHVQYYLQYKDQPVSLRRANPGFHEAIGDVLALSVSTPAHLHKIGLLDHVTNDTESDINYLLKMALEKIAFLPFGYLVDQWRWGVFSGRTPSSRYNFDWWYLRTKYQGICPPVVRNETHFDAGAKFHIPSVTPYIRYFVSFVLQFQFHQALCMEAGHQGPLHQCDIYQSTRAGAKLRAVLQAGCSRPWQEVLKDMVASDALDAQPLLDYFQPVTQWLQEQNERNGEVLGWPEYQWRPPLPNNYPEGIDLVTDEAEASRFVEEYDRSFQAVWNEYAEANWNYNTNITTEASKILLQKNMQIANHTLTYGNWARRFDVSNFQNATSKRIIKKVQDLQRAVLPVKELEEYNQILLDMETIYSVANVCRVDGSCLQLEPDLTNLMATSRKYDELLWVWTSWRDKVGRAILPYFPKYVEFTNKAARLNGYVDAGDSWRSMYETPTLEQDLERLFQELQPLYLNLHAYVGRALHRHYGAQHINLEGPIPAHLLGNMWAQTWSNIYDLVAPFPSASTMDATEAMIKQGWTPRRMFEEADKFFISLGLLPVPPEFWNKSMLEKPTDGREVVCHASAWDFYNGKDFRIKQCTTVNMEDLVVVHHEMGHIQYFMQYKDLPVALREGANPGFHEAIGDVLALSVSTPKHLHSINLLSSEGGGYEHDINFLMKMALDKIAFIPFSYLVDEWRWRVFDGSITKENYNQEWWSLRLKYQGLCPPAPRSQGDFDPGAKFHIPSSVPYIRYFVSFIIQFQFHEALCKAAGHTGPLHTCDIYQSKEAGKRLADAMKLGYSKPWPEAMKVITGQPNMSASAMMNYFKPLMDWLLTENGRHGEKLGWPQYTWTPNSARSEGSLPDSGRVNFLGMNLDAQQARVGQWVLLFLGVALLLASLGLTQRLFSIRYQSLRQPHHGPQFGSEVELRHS

In brackets after ≈: the same amount, converted by molar mass.

Series [1] deals with ACE (Oryctolagus cuniculus, UniProt P12822). The following applies: Antarctic krill peptides; cited from earlier work.
Series [2] has as its system ET-1. The following applies: from Antarctic krill; cited from earlier work.
For series [3], the system named is HUVECs. The following applies: cited from earlier work.

Broadly, the IC50 is the point on the concentration scale where inhibition reaches its midpoint. Take `C[C@H](NC(=O)[C@@H](N)Cc1ccc(O)cc1)C(=O)N[C@@H](CCCCN)C(=O)O`: the IC50 in series [1] is 1260 µg/mL (≈ 3310 µM).

As to `N[C@@H](Cc1c[nH]c2ccccc12)C(=O)N[C@@H](Cc1ccccc1)C(=O)O`, the IC50 in series [1] is 320 µg/mL (≈ 911 µM). Also, the ET-1 content entry in series [2] was “reducing ET-1 content”. The “NO production of HUVEC” value in series [3] is “increasing the NO production”.
